According to US8518980B2, “Treatment of Duchenne muscular dystrophy” (Summit Corporation PLC, priority 2006, dated 2013):

Test system: Utrophin A promoter linked to a luciferase reporter gene (H2K/mdx/Utro A reporter cell line)
Experiment: Luciferase reporter assay (murine H2K cells)
Settings: Table 1; luciferase level relative to control; final concentration of 10 μM

Question: `CCP(=O)(OC)c1ccc2oc(-c3ccc(Cl)cc3)nc2c1` (stereo not shown) [Example 455, Methyl 2-(4-chlorophenyl)benzo[d]oxazol-5-yl(ethyl)phosphinate] was tested. Which Activity did it give?
Answer: ++++ (Above 401% relative to control)
